Measurements published in publication PMC5613062 (Investigational New Drugs, 2017).

Tests used:
[1] = Pharmacokinetics alone and in combination, selumetinib + erlotinib arm
[2] = Pharmacokinetics alone and in combination, selumetinib + temsirolimus arm; format: in vivo, human

## Cn1cnc2c(F)c(Nc3ccc(Br)cc3Cl)c(C(=O)NOCCO)cc21 [Selumetinib]
[1]
  PK parameters when administered alone and in combination: similar
[2]
  PK parameters when administered alone and in combination: similar
